pEC50: −log10 of the molar value.
Biological target: OX2R (Homo sapiens, UniProt O43614)
Assay: Evaluation of agonist activity against OX2R (CHOOX2R cells, Fura2AM fluorescence, FDSS3000)
Type: cell-based
Conditions: for pEC50: OX2R agonist activity; for pEC50 / Response (0.1 μM (%)) / Response (1.0 μM (%)) / Response (10 μM (%)): CHOOX2R cells; for Emax (%): conversion with orexin-A as full agonist (maximum agonist activity 100%); for Response (0.1 μM (%)): test compound 0.1 μM; for Response (0.1 μM (%)) / Response (1.0 μM (%)) / Response (10 μM (%)): relative to orexin-A as full agonist (100%); for Response (1.0 μM (%)): test compound 1.0 μM; for Response (10 μM (%)): test compound 10 μM

Amino acid sequences for entries named in this document (tags omitted).
UniProt O43614, whole entry: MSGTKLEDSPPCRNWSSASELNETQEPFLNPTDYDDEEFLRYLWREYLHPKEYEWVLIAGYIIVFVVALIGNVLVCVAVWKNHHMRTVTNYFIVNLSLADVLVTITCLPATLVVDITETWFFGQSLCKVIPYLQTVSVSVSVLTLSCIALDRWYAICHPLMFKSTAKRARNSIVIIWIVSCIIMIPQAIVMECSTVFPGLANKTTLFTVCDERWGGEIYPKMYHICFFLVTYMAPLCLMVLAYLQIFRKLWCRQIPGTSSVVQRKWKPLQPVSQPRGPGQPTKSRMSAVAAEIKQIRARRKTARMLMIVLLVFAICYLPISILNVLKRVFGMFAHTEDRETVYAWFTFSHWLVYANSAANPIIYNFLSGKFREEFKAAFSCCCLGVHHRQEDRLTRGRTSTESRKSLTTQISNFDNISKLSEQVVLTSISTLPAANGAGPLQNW

| Structure (SMILES) | pEC50 | Emax (%) | Response (0.1 μM (%)) [%] | Response (1.0 μM (%)) [%] | Response (10 μM (%)) [%] |
| --- | --- | --- | --- | --- | --- |
| COc1ccc(-c2cccc(C(=O)N(C)C)c2)cc1S(=O)(=O)Nc1cccc(NCCNC(=O)c2cccnc2OC)c1 | 7.00 | 94 | 18 | 89 | 91 |
| COc1cccc(C(=O)NCCNc2cccc(NS(=O)(=O)c3cc(-c4cccc(C(=O)N(C)C)c4)ccc3OC)c2)n1 | 6.44 | 87 | 44 | 91 | 84 |

From patent US9815787B2, “Sulfonamide derivative or pharmaceutically acceptable acid addition salt thereof” (UNIVERSITY OF TSUKUBA, priority 2013, dated 2017)
